This series has as its system cell line ET (luc-ubi-neo/ET), Huh7 human hepatoma cell line. Particulars: concentration decreasing cell viability by 50%, 72 hrs, CytoTox-ONE.

The term CC50 denotes the concentration at which the toxic effect on the cells reaches its halfway point. The low end stands for greater toxicity to the cells, the high end for lower toxicity to the cells.

Turning to “IFNα-2b: Recombinant human interferon alpha-2b, positive control”, the CC50 was greater than 10 µM.
